Experimental data from US6953800B2, “Use of selective antagonists of the α1B-adrenergic receptor for improvement of sexual dysfunction” (Recordati S.A. Chemical, priority 1999, dated 2005).

Test system: anaesthetised dogs
Assay: Intracavernous and blood pressure recording in dogs

SMILES: COc1cc2nc(N3CCN(C(=O)c4ccco4)CC3)nc(N)c2cc1OC [Prazosin]
- DT (duration of tumescence) (30 μg/kg intracavernous): 1.1 ± 1.1 min
- DT (duration of tumescence) (100 μg/kg intracavernous): 1.4 ± 1.1 min
- DT (duration of tumescence) (300 μg/kg intracavernous): 3.0 ± 1.5 min
- DT (duration of tumescence) (1000 μg/kg intracavernous): 17.7 ± 14.1 min
